Assay results reported in patent publication US20080262053A1 (priority 2005, published 2008).

Tested on: patients suffering from moderate to severe RLS
Settings: single doses as tablets containing 0.1 to 1.5 mg active substance, once a day
Text: The expression moderate to severe RLS is used when patients reach a points score of >15 on the international RLS scale. The scale runs from 0 (no RLS symptoms) to 40 (severest form of RLS). Thus, in moderate to severe RLS, the symptoms usually occur more than twice a week.

CCCNC1CCc2nc(N)sc2C1.Cl.Cl (stereo not shown) [pramipexole, 2-amino-6-n-propylamino-4,5,6,7-tetrahydrobenzo-thiazole dihydrochloride]
tolerability: well tolerated
